The text below walks through data of PubChem BioAssay AID1346378 (National Center for Advancing Translational Sciences (NCATS), 2018).

By UniProt entry, the sequences of proteins in these tests, tags left out.
UniProt Q9BTU6, whole entry: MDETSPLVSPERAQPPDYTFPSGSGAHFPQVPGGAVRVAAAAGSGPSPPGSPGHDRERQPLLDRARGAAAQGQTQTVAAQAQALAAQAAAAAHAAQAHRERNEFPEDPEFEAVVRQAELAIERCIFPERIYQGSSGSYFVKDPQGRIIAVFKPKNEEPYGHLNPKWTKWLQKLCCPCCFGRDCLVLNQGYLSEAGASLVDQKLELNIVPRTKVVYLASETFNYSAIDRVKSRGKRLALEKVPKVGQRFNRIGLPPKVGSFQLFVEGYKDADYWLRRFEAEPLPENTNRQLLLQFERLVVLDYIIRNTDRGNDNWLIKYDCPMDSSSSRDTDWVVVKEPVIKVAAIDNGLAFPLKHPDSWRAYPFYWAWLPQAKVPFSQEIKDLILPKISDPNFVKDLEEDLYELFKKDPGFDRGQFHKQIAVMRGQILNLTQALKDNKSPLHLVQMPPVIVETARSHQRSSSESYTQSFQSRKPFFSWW

The entries are a selection whose mix differs from that of the whole data set. Activity calls are given as the source filed them. No stated cut-off is given here; in the data, active means activity change below about -50%; inconclusive means mostly about -30% to -49%; inactive means weaker than that.

For this assay, the target named is Phosphatidylinositol 4-kinase type 2-alpha (Homo sapiens) (UniProt Q9BTU6). Nature of the assay: qHTS for small molecular inhibitors of PI4K2A.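 On activity change, negative = inhibition: -100% = wells without enzyme as full effect.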 Conditions: purified PI4K2A, ADP-Glo luminescence, 1 h; at 76.9 µM, stronger effect = lower value. The source says: The phosphatidylinositol 4-phosphate (PI4P) is emerging as a key regulator of lipid transfer in ER-membrane contact sites. The four different phosphatidylinositol 4-kinase (PI4K) enzymes generate PI4P in different membrane compartments supporting distinct cellular processes many of which are crucial for the maintenance of cellular integrity but also hijacked by intracellular pathogens. The goal of this screening project is to search for small molecular inhibitors of PI4K2A based on a high throughput screening strategy.The ADP-Glo assay was used as a starting point to develop a miniaturized version for HTS applications. To implement the HTS screen, the PI4K ADP-Glotrade mark Kinase assay (Promega, V9102) was miniaturized for the 1536-well format used at NCGC.
For the robotic screening, the ADP-Glo assay using the ADP-Glotrade mark Kinase Assay kit from Promega was miniaturized and optimized on 1536-well white solid bottom plates (Greiner Bio-one). The substrate, 1.2 mM PI, prepared in the assay buffer (40mM Tris pH7.5, 20mM MgCl2, 1mM EGTA, 0.4% Triton X-100, 0.5mM DTT, 0.5mg/ml BSA) and PI4K2A enzyme, diluted also in the assay buffer to 4ug/mL, were dispensed onto the plates in equal volumes (1microl/well), pinned with 23 nL/well tested compounds or control followed by dispensation of 1microl/well 300microM ATP. The plates were incubated for one hour. Then, 2 µL/well of ADP-Glo reagent was added and incubated for 40 minutes. Next, 4microL/well of Kinase Detection Buffer was added to the plates and incubated for additional 40 minutes. All incubation steps were performed at ambient temperature. The resulting luminescence signal was measured on Viewlux plate reader (PerkinElmer). Adenosine, a partial non-specific inhibitor, was used as a positive control at 100microM final concentration to assess the assay's quality and plate-to-plate reproducibility. We also used "no enzyme" control to gauge the assay's maximal potential inhibition (IC100).
(In qHTS, concentration-response curves come from the screen itself.)
For `Cc1cc(-c2cccc3ccccc23)c(C)cn1.O=[N+]([O-])c1cc([N+](=O)[O-])c(O)c([N+](=O)[O-])c1`, the activity change, negative = inhibition was inactive: -0.156%.
Turning to `O=[N+]([O-])c1ccc(OP2(=O)COCCO2)cc1` (configuration not stated), the activity change, negative = inhibition was inactive: 1.37%.
As for `Cc1c(C(c2ccc3c(c2)OCO3)c2c(C)n(C)n(-c3ccccc3)c2=O)c(=O)n(-c2ccccc2)n1C.O=[N+]([O-])c1cc([N+](=O)[O-])c(O)c([N+](=O)[O-])c1`, the figure is inactive: -2.06%; as for `CP(=O)(Nc1ccc(SC(F)(F)F)cc1)Oc1ccc(F)cc1` (configuration not stated), inactive: -2.46%.
Then `CCOP(C)(=S)SCC(=O)NC(C)(CC)C(=O)O` (configuration not stated), with inactive: 3.27%; and `CP(=O)(Nc1ccc2c(c1)OCCO2)Oc1ccccc1` (configuration not stated), with inactive: 2.49%; and `O=[N+]([O-])c1cc([N+](=O)[O-])c(C(F)(F)F)c([N+](=O)[O-])c1O`, with inactive: -4.53%.
Then `Cc1ccccc1NP(C)(=O)Nc1ccccc1C`, with inactive: 1.34%; and `CC(C)c1ccc(OP(C)(=O)Nc2ccc(SC(F)(F)F)cc2)cc1` (configuration not stated), with inactive: -3.11%.
As for `CP(=O)(Nc1ccccc1F)Oc1ccccc1` (configuration not stated), the activity change, negative = inhibition was inactive: -2.67%.
Then `O=C(OCCN1CCN(CCOCc2ccccc2)CC1)C(O)(c1ccccc1)c1ccccc1`, with inactive: -3.39%; and `CCOP(=O)(CC)Oc1ccc([N+](=O)[O-])cc1` (configuration not stated), with inactive: -0.0979%.
Take `Cc1cccc([N+](=O)[O-])c1[N+](=O)[O-]`: the activity change, negative = inhibition result was “inactive”.
As for `COc1ccc(OP(C)(=O)Nc2ccc(SC(F)(F)F)cc2)cc1` (configuration not stated), the activity change, negative = inhibition was inactive: 1.34%.
Then `CCOC(=O)c1ccc(NP(C)(=O)Oc2ccc(F)cc2)cc1` (configuration not stated), with inactive: 2.65%; and `CCN(CC)CCCOC(=O)C(O)(c1ccccc1)C1CCCCC1` (configuration not stated), with inactive: 6.09%; and `Cc1c([N+](=O)[O-])cc([N+](=O)[O-])c(Br)c1[N+](=O)[O-]`, with inactive: -8.01%.
For `CCCCCOc1ccc(NP(C)(=O)Oc2ccc(Cl)cc2Cl)cc1` (configuration not stated), the activity change, negative = inhibition is inactive: 7.76%.
Turning to `CP(=O)(Nc1ccccc1)Oc1ccc(F)cc1` (configuration not stated), the activity change, negative = inhibition was inactive: -1.07%.
Then `Cc1cc(C)cc(OP(C)(=O)Nc2cccc(C(F)(F)F)c2)c1` (configuration not stated), with inactive: 0.503%; and `COc1ccc(OP(C)(=O)Nc2ccccc2Br)cc1` (configuration not stated), with inactive: -2.5%.
Then `COc1ccccc1OP(C)(=O)Nc1ccc(C)c(C)c1` (configuration not stated), with inactive: 4.95%; and `CP(=O)(OCCOc1ccccc1)OCCOc1ccccc1`, with inactive: -0.889%; and `CP(=O)(Nc1ccc(Cl)cc1Cl)Oc1ccccc1` (configuration not stated), with inactive: -1.83%.
As for `CCCCCCCCCCCCCCCC1C[N+](C)(C)CCOP(C)(=O)O1` (configuration not stated), the figure is inactive: 2.98%; as for `COc1ccccc1OP(C)(=O)Nc1ccc(Br)cc1` (configuration not stated), inactive: 3.93%.
On to `CN(C)CCOC(=O)C(O)(c1ccccc1)C1CCCC1` (configuration not stated), for which the activity change, negative = inhibition is inactive: -1.08%.
Then `COc1ccc(OP(C)(=O)Nc2ccccn2)cc1` (configuration not stated), with inactive: 2.17%; and `O=[N+]([O-])c1cc([N+](=O)[O-])c(Nc2ccccn2)c([N+](=O)[O-])c1`, with inactive: -13.8%.
For `Cc1c(NP(C)(=O)Oc2ccc(C(C)C)cc2)c(=O)n(-c2ccccc2)n1C` (configuration not stated), the activity change, negative = inhibition is inactive: 3.6%.
With `CCc1ccc(OP(C)(=O)O)cc1`, the activity change, negative = inhibition is inactive: -21.8%.
For the compound `COc1ccccc1OP(C)(=O)Nc1ccc(C)cc1C` (configuration not stated), the activity change, negative = inhibition was inactive: 1.09%.
As for `CP(=O)(Nc1ccccn1)Oc1ccccc1` (configuration not stated), the figure is inactive: 3.62%; as for `COc1ccc(OP(C)(=O)Nc2ccc(Br)cc2)cc1` (configuration not stated), inactive: -3.08%; as for `CCN(CC)CC(O)COC(=O)C(O)(c1ccccc1)C1CCCCC1` (configuration not stated), inactive: -6.08%.
Then `CCc1ccc(OP(C)(=O)Nc2cccnc2)cc1` (configuration not stated), with inactive: 3.17%.
As for `CP(=O)(Oc1ccccc1)N1CCOC1=O` (configuration not stated), the figure is inactive: 4.41%.
`O=C(OCCCN1CCCC1)C(O)(c1ccccc1)C1CCCCC1` (configuration not stated): the activity change, negative = inhibition is inactive: -3.45%.
Then `OCCSCCO`, with inactive: 1.47%; and `COc1ccccc1OP(C)(=O)Nc1c(C)n(C)n(-c2ccccc2)c1=O` (configuration not stated), with inactive: 4.95%; and `CP(=O)(Nc1ccc(Cl)cc1)Oc1ccc(F)cc1` (configuration not stated), with inactive: -6.57%.
Then `CC(C)(C)c1ccc(OP(C)(=O)O)cc1`, with inactive: -0.939%; and `COc1ccccc1OP(C)(=O)Nc1ccccc1Br` (configuration not stated), with inactive: 2.8%; and `CN(C)C(=O)c1c([N+](=O)[O-])cc([N+](=O)[O-])cc1[N+](=O)[O-]`, with inactive: -10%.
Then `Nc1ccc2c(ccc3cccnc32)n1.O=[N+]([O-])c1cc([N+](=O)[O-])c(O)c([N+](=O)[O-])c1`, with inactive: 13.2%; and `CP(=O)(OC12CC3CC(CC(C3)C1)C2)OC12CC3CC(CC(C3)C1)C2`, with inactive: -0.532%.
In the case of `CCOC(=O)c1ccc(NP(C)(=O)Oc2ccc(Cl)cc2)cc1` (configuration not stated), the activity change, negative = inhibition is inactive: 1.72%.
